Target: T1, Human CB1 receptor (Homo sapiens, UniProt P21554)
T1 construct: purchased Receptor Biology
Experiment: hCB1 GTPγS binding
Assay type: biochemical
Details: hCB1 membranes, GTPg35S binding
Method: Human CB1 receptor from Receptor Biology (hCB1) or human CB2 receptor membranes (BioSignal) are thawed at 37° C., passed 3 times through a 25-gauge blunt-end needle and diluted in the GTPγS binding buffer (50 mM Hepes, 20 mM NaOH, 100 mM NaCl, 1 mM EDTA, 5 mM MgCl2, pH 7.4, 0.1% BSA). The EC50 and Emax of the compounds of the invention are evaluated from 10-point dose-response curves done in 300 μl with the appropriate amount of membrane protein and 100000-130000 dpm of GTPg^35S per well (0.11-0.14 nM). The basal and maximal stimulated binding is determined in absence and presence of 1 μM (hCB2) or 10 μM (hCB1) Win 55,212-2 respectively. The membranes are pre-incubated for 5 minutes with 56.25 μM (hCB2) or 112.5 μM (hCB1) GDP prior to distribution in plates (15 μM (hCB2) or 30 μM (hCB1) GDP final). The plates are vortexed and incubated for 60 minutes at room temperature, filtered on Unifilters GF/B (presoaked in water) with the Tomtec or Packard harvester using 3 ml of wash buffer (50 mM Tris, 5 mM MgCl2, 50 mM NaCl, pH 7.0). The filters are dried for 1 hour at 55° C. The radioactivity (cpm) is counted in a TopCount (Packard) after adding 65 μl/well of MS-20 scintillation liquid. […]

The chains behind the UniProt entries cited, without tags or fusion partners.
UniProt P21554, whole entry: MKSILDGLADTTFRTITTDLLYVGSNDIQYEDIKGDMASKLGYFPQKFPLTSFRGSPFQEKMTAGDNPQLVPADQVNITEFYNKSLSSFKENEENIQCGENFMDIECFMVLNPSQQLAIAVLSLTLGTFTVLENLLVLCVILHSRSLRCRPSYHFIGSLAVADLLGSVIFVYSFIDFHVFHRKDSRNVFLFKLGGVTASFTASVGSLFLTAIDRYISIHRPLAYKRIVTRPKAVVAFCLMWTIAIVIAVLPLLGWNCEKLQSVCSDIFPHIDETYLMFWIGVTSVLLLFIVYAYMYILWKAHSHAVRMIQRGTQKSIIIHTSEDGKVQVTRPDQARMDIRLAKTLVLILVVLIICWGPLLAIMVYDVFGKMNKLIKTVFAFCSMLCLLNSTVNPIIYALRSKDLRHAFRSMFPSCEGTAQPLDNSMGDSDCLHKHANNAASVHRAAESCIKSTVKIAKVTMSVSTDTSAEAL

O=C(NCC1CCCCC1)c1c(O)cccc1NC(=O)c1cccc2ccccc12 [Example 49, N-[2-[[(Cyclohexylmethyl)amino]carbonyl]-3-hydroxyphenyl]-1-naphthalenecarboxamide]
EC50: 0.968 µM

— patent US20090018116A1, “Therapeutic Compounds” (ASTRAZENECA AB, priority 2004, published 2009)
